Assay results taken from patent US20250289888A1.

Amino acid sequences for entries named in this document (tags omitted). Residues count along the entry.
UniProt P08637, 17-254, stated change not applied: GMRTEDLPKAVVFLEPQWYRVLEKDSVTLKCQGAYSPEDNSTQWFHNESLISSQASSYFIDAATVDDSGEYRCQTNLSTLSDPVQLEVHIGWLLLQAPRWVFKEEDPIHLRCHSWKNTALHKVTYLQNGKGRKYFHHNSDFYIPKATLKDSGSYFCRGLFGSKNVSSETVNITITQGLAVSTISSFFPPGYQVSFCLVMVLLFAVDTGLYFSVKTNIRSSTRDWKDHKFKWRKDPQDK
UniProt P12318, 34-317, stated change not applied: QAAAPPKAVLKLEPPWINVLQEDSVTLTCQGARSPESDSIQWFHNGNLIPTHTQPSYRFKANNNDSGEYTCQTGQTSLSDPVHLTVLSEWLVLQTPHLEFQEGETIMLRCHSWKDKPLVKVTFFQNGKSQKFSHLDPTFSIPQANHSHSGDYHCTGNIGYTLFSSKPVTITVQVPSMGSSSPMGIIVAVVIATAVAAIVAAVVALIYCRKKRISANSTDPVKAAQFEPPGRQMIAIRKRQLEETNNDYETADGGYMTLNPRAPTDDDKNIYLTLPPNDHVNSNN
UniProt P31994, 43-310: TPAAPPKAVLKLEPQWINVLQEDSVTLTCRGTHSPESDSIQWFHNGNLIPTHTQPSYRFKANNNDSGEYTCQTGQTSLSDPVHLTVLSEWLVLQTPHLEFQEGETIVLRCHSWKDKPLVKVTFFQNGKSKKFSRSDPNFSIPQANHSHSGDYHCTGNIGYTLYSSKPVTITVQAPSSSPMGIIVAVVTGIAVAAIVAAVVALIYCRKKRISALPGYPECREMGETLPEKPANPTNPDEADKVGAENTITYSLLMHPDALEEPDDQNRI
UniProt P08508, 31-261: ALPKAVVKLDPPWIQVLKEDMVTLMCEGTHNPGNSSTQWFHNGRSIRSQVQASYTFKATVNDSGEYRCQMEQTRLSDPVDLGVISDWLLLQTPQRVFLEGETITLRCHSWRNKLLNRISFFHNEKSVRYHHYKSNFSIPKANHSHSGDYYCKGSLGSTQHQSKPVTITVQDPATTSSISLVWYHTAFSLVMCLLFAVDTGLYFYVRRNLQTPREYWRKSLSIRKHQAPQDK

Key:
Test in all cases: cell-based or functional assay
[1] = biological target: human FcγRIIIa, V variant (human) (UniProt P08637)
[2] = biological target: human FcγRIIIa, F variant (human) (UniProt P08637)
[3] = biological target: human FcγRIIa, H variant (human) (UniProt P12318)
[4] = biological target: human FcγRIIa, R variant (human) (UniProt P12318)
human FcγRIIb (human) = human FcγRIIb (human) (UniProt P31994)
mouse FcγRIII (mouse) = mouse FcγRIII (mouse) (UniProt P08508)
mouse FcγRIV (mouse) = biological target: mouse FcγRIV (mouse)

EC50 (ug/mL), Plate 1, hFcγRIIIa Fc effector activity bioassay [1]	EC50 (ug/mL), Plate 2, hFcγRIIIa Fc effector activity bioassay [1] [µg/mL]	Maximum luminescence (RLU) [2] [RLU]	Maximum luminescence (RLU) [1] [RLU]	Maximum luminescence (RLU) [3] [RLU]	Maximum luminescence (RLU) [4] [RLU]	Maximum luminescence (RLU) (human FcγRIIb (human))	Maximum luminescence (RLU) (mouse FcγRIII (mouse))	Maximum luminescence (RLU) (mouse FcγRIV (mouse))	Substance
0.0036 µg/mL and 0.0048 µg/mL	0.0102								GIGA-564 (antibody)
		2430	4260	210	1570	978	1160	297	GIGA-564_LALA-PG (antibody)

Values joined by “and” are separate entries in the source; they are usually repeats but may differ in a detail not shown here. Equal entries are not always repeated.
